Where “and” joins values, the source holds several entries; their conditions need not be identical. Identical values can stand only once. Like-named read-outs stand apart in the source and are kept apart here. Marks after values point to notes of the source that are not given here.
Tests used:
[1] = test system: human RPE cells; conditions: for % RPE Protection (High HQ): donor RPE cells stressed with high level of hydroquinone; for % RPE Protection (Low HQ): donor RPE cells stressed with low level of hydroquinone; for Cytoprotective effect / cell viability in stressed RPE cells (in words): HQ- (or CCCP-) stressed RPE cells
[2] = test system: human RPE cells; conditions: for Glutathione (GSH) level in HQ stressed RPE cells: 160 μM HQ + 400 μM peptide, 1.5 hours; for Effect on GSH level (in words): cells stressed with HQ; for Glutathione (GSH) level, peptide alone: unstressed RPE cells, 400 μM peptide
[3] = test system: retinal neovascularization in OIR mice; conditions: for % NV Reduction Compared to Control Peptide: 10 μg per eye intravitreal, vs inactive Control Peptide GRGETP; for % NV Reduction: single intravitreal injection 10 μg per eye, summary Table 3
[4] = test system: human RPE cells; conditions: for Effect on ROS level in stressed RPE cells (in words): co-treatment with HQ; for % Reactive Species, peptide alone: unstressed RPE cells, % of control
[5] = test system: human RPE cells; conditions: for Effect on mitochondria membrane potential (in words): cells co-treated with HQ; for % Mitochondrial Membrane Potential, peptide alone: unstressed RPE cells, compared to control
[6] = test system: primary human RPE cells; conditions: HQ 180 μM, RSG 800 μM or ALG-3002 100 μM, 4 hours, transmission EM

Row | Structure (SMILES) | % RPE Protection (High HQ) [1] | % RPE Protection (Low HQ) [1] | % NV Reduction Compared to Control Peptide [3] | % NV Reduction [3] | Effect on ROS level in stressed RPE cells (in words) [4] | Effect on mitochondria membrane potential (in words) [5] | Cell viability (% of MEM) ([1]; HQ 140 μM + 400 μM peptide) | Cell viability (% of MEM) ([1]; HQ 140 μM + 800 μM peptide) | Cell viability (% of MEM) ([1]; HQ 160 μM + 400 μM peptide) | Cell viability (% of MEM) ([1]; HQ 160 μM + 800 μM peptide) [%****] | Cytoprotective effect / cell viability in stressed RPE cells (in words) [1] | further results
1 | CC(O)[C@H](NC(=O)[C@H](CS)NC(=O)CNC(=O)[C@H](CCCNC(=N)N)NC(=O)CN)C(=O)N1CCC[C@H]1C(=O)O (stereo partly drawn) [ALG-3002, Gly-Arg-Gly-Cys-Thr-Pro] | 81% | 80% | 66% | 66% | significantly reduce ROS level | significantly improve mitochondria membrane potential | – | – | – | – | – | RPE Cell Viability, CCCP + ALG-3002 ([1]; CCCP-stressed RPE cells, 100 uM): 88%****; Cell viability (% of MEM) ([1]; HQ 140 μM + 25 μM peptide): 123%****; Cell viability (% of MEM) ([1]; HQ 140 μM + 100 μM peptide): 116%****; Cell viability (% of MEM) ([1]; HQ 160 μM + 50 μM peptide): 161%****; Cell viability (% of MEM) ([1]; HQ 160 μM + 100 μM peptide): 163%****; RPE Cell Viability, HQ + ALG-3002 (P2) ([1]; HQ-stressed RPE cells, 100 uM): 103%****; Glutathione (GSH) level in HQ stressed RPE cells [2]: 8060↑ RLU/LDH units; Effect on GSH level (in words) [2]: significantly improved GSH level; Glutathione (GSH) level, peptide alone [2]: 8657↑ RLU/LDH units; % Reactive Species, peptide alone ([4]; peptide 100 μM): 73%*; % Mitochondrial Membrane Potential, peptide alone ([5]; peptide 100 μM): 100% NS; Effect on HQ-induced morphologic changes in mitochondria (in words) [6]: significantly reduce the severity of HQ-induced morphologic changes in mitochondria
2 | CC(O)[C@H](NC(=O)[C@H](CCC(=O)O)NC(=O)[C@H](C)NC(=O)[C@H](CCCNC(=N)N)NC(=O)CN)C(=O)N1CCC[C@H]1C(=O)O (stereo partly drawn) [ALG-3004, Gly-Arg-Ala-Glu-Thr-Pro] | 41% | 65% | 63% | 63% | significantly reduce ROS level | significantly improve mitochondria membrane potential | 94%**** | 99%**** | 60%**** | 90 | greater cytoprotective effect than RSG | % Reactive Species, peptide alone ([4]; peptide 400 μM): 100% NS; % Mitochondrial Membrane Potential, peptide alone ([5]; peptide 400 μM): 110%*
3 | CC(O)[C@H](NC(=O)[C@H](CC(=O)O)NC(=O)CNC(=O)[C@H](CCCCN)NC(=O)CN)C(=O)N1CCC[C@H]1C(=O)O (stereo partly drawn) [ALG-3009, Gly-Lys-Gly-Asp-Thr-Pro] | 26% | 33% | 40% | 40% | – | – | 74%*** | 69%*** | 52%**** | 74 | – | –
4 | N=C(N)NCCC[C@H](NC(=O)CN)C(=O)NCC(=O)N[C@@H](CS(=O)(=O)O)C(=O)NCC(=O)NCC(=O)NCC(=O)N[C@@H](CC(=O)O)C(=O)NCC(=O)O [ALG-3006, Gly-Arg-Gly-Cys(acid)-Gly-Gly-Gly-Asp-Gly] | 25% | 50% | 62% | 62% | – | – | 83%**** | 113%**** | 39%***8 | 66 | greater cytoprotective effect than RSG | –
5 | CC(O)[C@H](NC(=O)[C@H](CCCNC(=N)N)NC(=O)CNC(=O)[C@H](CS(=O)(=O)O)NC(=O)CN)C(=O)N1CCC[C@H]1C(=O)O (stereo partly drawn) [ALG-3008, Gly-Cys(acid)-Gly-Arg-Thr-Pro] | 12% | 36% | 63% | 63% | – | – | 77%*** | 81%**** | 38% NS | 65 | – | –
6 | C[C@@H](O)[C@H](NC(=O)[C@H](CS(=O)(=O)O)NC(=O)CNC(=O)[C@H](CCCNC(=N)N)NC(=O)CN)C(=O)N1CCC[C@H]1C(=O)O [Risuteganib, Glycyl-L-arginylglycyl-3-sulfo-L-alanyl-L-threonyl-L-proline, reference compound] | 13-20% | 12-38% | 47-64% | 47-64% | – | – | – | – | – | – | – | Cell viability (% of MEM) ([1]; HQ 150 μM + 400 μM peptide): 24%**; Cell viability (% of MEM) ([1]; HQ 170 μM + 400 μM peptide): 29%**; Glutathione (GSH) level in HQ stressed RPE cells [2]: 3284↑ RLU/LDH units; Effect on GSH level (in words) [2]: significantly improved GSH level; Glutathione (GSH) level, peptide alone [2]: 8995↑ RLU/LDH units; Effect on HQ-induced morphologic changes in mitochondria (in words) [6]: significantly reduce the severity of HQ-induced morphologic changes in mitochondria
7 | CC(O)[C@H](NC(=O)CNC(=O)[C@H](CC(=O)O)NC(=O)[C@H](CCCNC(=N)N)NC(=O)CN)C(=O)N1CCC[C@H]1C(=O)O (stereo partly drawn) [ALG-3003, Gly-Arg-Asp-Gly-Thr-Pro] | 17% | 29% | 44% | 44% | – | – | 50%**** | 73%**** | 50%**** | 54 | – | –
8 | CC(O)[C@H](NC(=O)[C@H](CC(N)=O)NC(=O)CNC(=O)[C@H](CCCNC(=N)N)NC(=O)CN)C(=O)N1CCC[C@H]1C(=O)O (stereo partly drawn) [ALG-3005, Gly-Arg-Gly-Asn-Thr-Pro] | 16% | 53% | 64% | 64% | – | – | 82%**** | 95%**** | 36%*** | 70 | – | –
9 | CC(O)[C@H](NC(=O)[C@H](CS(=O)(=O)O)NC(=O)[C@H](C)NC(=O)[C@H](CCCNC(=N)N)NC(=O)CN)C(=O)N1CCC[C@H]1C(=O)O (stereo partly drawn) [ALG-3001, Gly-Arg-Ala-Cys(acid)-Thr-Pro] | 15% | 15% | – | 50-60% | – | – | – | – | – | – | – | Cell viability (% of MEM) ([1]; HQ 150 μM + 400 μM peptide): 27%***; Cell viability (% of MEM) ([1]; HQ 150 μM + 800 μM peptide): 37%****; Cell viability (% of MEM) ([1]; HQ 170 μM + 400 μM peptide): 27%****; Cell viability (% of MEM) ([1]; HQ 170 μM + 800 μM peptide): 53%****; % NV Reduction Compared to Control Peptide ([3]; listed as ALG-3001 (P1)): 60% and 50%
10 | CC(O)[C@H](NC(=O)[C@H](CCCNC(=N)N)NC(=O)CNC(=O)[C@H](CC(=O)O)NC(=O)CN)C(=O)N1CCC[C@H]1C(=O)O (stereo partly drawn) [ALG-3007, Gly-Asp-Gly-Arg-Thr-Pro] | 31% | 48% | 56% | 56% | significantly reduce ROS level | significantly improve mitochondria membrane potential | 81%**** | 97%**** | 45%**** | 73 | greater cytoprotective effect than RSG | % Reactive Species, peptide alone ([4]; peptide 400 μM): 82% NS; % Mitochondrial Membrane Potential, peptide alone ([5]; peptide 400 μM): 115%**

— patent US12454549B2, “Treatments for diseases and disorders that involve oxidative stress” (Jenius Pharma, LLC, priority 2017, dated 2025)
